Molecular target: human recombinant A2A adenosine receptors (Homo sapiens, UniProt P29274)
Assay: Radioligand binding to hA2A receptors expressed in CHO cells
Settings: percentage given after the > bound; meaning not defined in the patent

[3H] ZM 241385 binding to hA2A receptors, percentage in parentheses: 98%
SMILES: CCCn1c(=O)c2c(nc3n2CC(CC)=C3)n(Cc2ccccc2)c1=O [Compound 18, 1-Benzyl-7-ethyl-3-propyl-1H-pyrrolo[1,2-f]purine-2,4(3H,6H)-dione]

— patent publication US7435740B2 (dated 2008)
